Only some compounds are listed: those with a hit (about 0.43% of all), similar ones and a draw of the others.
Rango-impB inh: Rango-importin beta binding inhibition | Potency, µM (series often up to 92.2 µM), for inactives: top-dose inhibition of complex formation | Rango CFP/YFP FRET sensor + importin beta, 45 min | Q14974 | 0.031% of 340,000 active; calls by dose curve;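 further: 0% = DMSO wells and 100% = buffer wells lacking importin beta; nearly all actives have a fitted effect of over 15% in size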
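Inhibition scored from the CFP 486 nm/YFP 530 nm FRET ratio 45 min after adding 0.125 microM importin beta to 50 nM Rango biosensor preincubated 5 min with compound (room temperature, PBS with DTT, Tween-20, BSA). No-importin wells as positive control.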
EPAC2 antagonist: antagonists of human EPAC2 | Q8WZA2 | EPAC2 GEF exchange of Rap1B-BODIPY-GDP, fluorescence | Potency, µM (doses to about 114 µM), for inactives: at the top dose activity, negative = inhibition, most hits filed as inhibitors | 0.18% of 360,000 active; further: on the % scale 0 is the no-effect control and ±100 the full control effect; nearly all actives have a fitted effect of over 45% in size
EPAC2 ag: activates human EPAC2 exchange factor; Q8WZA2; EPAC2 activation, biochemical qHTS; response scale: 100% = 6.5 mM cAMP response; Potency, µM (highest dose often 154 µM), for the others: at the top dose activation, most hits filed as activators; 0.079% of 360,000 active; AID 720711; further: nearly all actives have a fitted effect of over 50% in size
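Fluorescence exchange assay: 100 nM EPAC2 with 250 nM RAP1B-BODIPY-GDP and 50 uM GDP; compounds tested as a concentration-titration series (qHTS). Loss of Rap1-bound BODIPY-GDP fluorescence read at 480/540 nm; data normalized to 6.5 mM cAMP.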
EPAC1 ag: agonists of human EPAC1; O95398; EPAC1 agonist qHTS, biochemical assay; response scale: 100% = response to 6.5 mM cAMP; Potency, µM (titrated, usually from 154 µM), for the others: at the top dose activation, most hits filed as activators; 0.073% of 360,000 active; AID 720707; further: nearly all actives have a fitted effect of over 60% in size
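Fluorescent GDP-exchange assay: 100 nM EPAC1 with 250 nM Rap1B preloaded with BODIPY-GDP and 50 uM GDP; compounds tested as concentration series, 5 min at room temperature, then read every 5 min for 30 min (ex 480/em 540 nm); normalized to 6.5 mM cAMP.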
EPAC1 antag: EPAC1 (human) antagonism; EPAC1 GEF assay, Rap1b-BODIPY-GDP exchange fluorescence; AID 720709; 0.14% of 360,000 active; Potency, µM (series often up to 115 µM), inactives show at the highest dose activity change, negative = inhibition, actives largely listed as inhibitors;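 further: plate controls were vehicle for no effect and positive control for full effect; nearly all actives have a fitted effect of over 50% in size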
Rango dissoc inh: inhibitors of RanGTP-induced Rango-importin beta complex dissociation | Potency, µM (highest dose often 46.1 µM), inactives show top-dose activity change, negative = inhibition | O95149+P62826 | 0.071% of 340,000 active | Biochemical FRET Rango-importin beta, RanGTP-induced dissociation; calls by dose curve; further: % of control where 0% means no effect; nearly all actives have a fitted effect of over 45% in size
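Rango (0.1 uM)–importin beta (0.25 uM) complex; RanGTP-RCC1 trigger; 45 min RT; CFP/YFP FRET read.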
* hit, by the source's call; i = inactive; u = inconclusive; x = no result; [ ] = another dose, or the depositor's remark. Unless noted, the call rests on the fitted dose curve; in most records, active means well fitted curve in the direction sought with a large enough effect; inconclusive means small, poorly fitted or top-dose-only effect, or another doubt; inactive means no such curve, though single readings can be large; an effect the other way counts as inactive or inconclusive. Potency means the concentration at half of the fitted maximal effect.

The first 2 compounds, to show the layout:
1) COc1cc(OC)c(S(=O)(=O)Nc2ccc(C(=O)N3CCCC3)cc2)cc1NC(C)=O
2) COC(=O)C1=CN(Cc2ccc(OC)c(OC)c2)C=C(C(=O)OC)C1c1cccc(F)c1
screen / no.,1,2
Rango-impB inh,-4.1%,u
EPAC2 antagonist,19.6%,u
EPAC2 ag,4.4%,6.3%
EPAC1 ag,-5.1%,-6.2%
EPAC1 antag,7.8%,-11.6%
Rango dissoc inh,-7.2%,5.8µM*

The whole of this part, from the first entry:
1) COc1cc(OC)c(S(=O)(=O)Nc2ccc(C(=O)N3CCCC3)cc2)cc1NC(C)=O
2) COC(=O)C1=CN(Cc2ccc(OC)c(OC)c2)C=C(C(=O)OC)C1c1cccc(F)c1
3) COC(=O)C1=CN(Cc2ccc(F)cc2)C=C(C(=O)OC)C1c1cc(OC)c(OC)c(OC)c1
4) COC(=O)C1=CN(Cc2cccs2)C=C(C(=O)OC)C1c1cccc(O)c1
5) CCCCN(C(C)=O)c1c(CC)nc2ccc(C(=O)NCCc3ccccn3)cn12
6) COCCn1c2nc(=O)n(-c3ccccc3)c(=O)c-2nc2ccccc21
7) CNC(=O)C(C)NS(=O)(=O)c1ccc(F)cc1 (stereo not given)
8) CCCN(CC1CC1)c1cc2c(c3c1ccn3C)C1CCC2C1 (stereo not given)
screen / no.,1,2,3,4,5,6,7,8
Rango-impB inh,-4.1%,u,u,u,x,x,1.3%,x
EPAC2 antagonist,19.6%,u,-17.5%,50.1µM*,10.0%,i,1.7%,u
EPAC2 ag,4.4%,6.3%,-2.8%,-6.2%,0.6%,89.1µM*,2.4%,5.4%
EPAC1 ag,-5.1%,-6.2%,0.3%,0.7%,3.9%,89.1µM*,-8.2%,-2.2%
EPAC1 antag,7.8%,-11.6%,-0.4%,0.6%,-12.6%,212.6%,-3.5%,-15.7%
Rango dissoc inh,-7.2%,5.8µM*,u,u,x,x,-11.6%,x

9) COc1cccc(/C(O)=C/c2nc3ccc(C(=O)NCCc4cccc(C)c4)cc3[nH]c2=O)c1
10) COc1cccc(/C(O)=C/c2nc3ccc(C(=O)NCCc4ccc(Cl)cc4)cc3[nH]c2=O)c1
11) CN1CCN(C(=O)C2(NC(=O)Nc3cccc(F)c3)CCCCC2)CC1
12) CCCCn1c(N)c(N(CCOC)C(=O)c2ccc(F)c(S(=O)(=O)N3CCOCC3)c2)c(=O)[nH]c1=O
13) COc1ccccc1C(=O)NNC(=O)CCCN1C(=O)/C(=C/c2cccs2)SC1=S
14) CCc1ccc(C=C2SC(=S)N(CCCC(=O)Nc3ccc(C(=O)O)cc3)C2=O)cc1
15) CCc1ccc(/C=C2/SC(=S)N(CCCC(=O)Nc3ccccc3C(=O)O)C2=O)cc1
16) COc1ccc(Cc2noc(CN3CCNC(=O)CC3)n2)cc1OC
screen / no.,9,10,11,12,13,14,15,16
Rango-impB inh,u,u,1.5%,-3.8%,5.2%,x,-0.5%,-1.3%
EPAC2 antagonist,-5.6%,51.8%,-1.9%,23.0%,14.8%,14.2%,u,-3.7%
EPAC2 ag,112µM*,112µM*,2.8%,6.8%,100µM*,5.9%,-6.3%,2.0%
EPAC1 ag,89.1µM*,u,-2.7%,-5.4%,1.6%,17.8%,2.4%,1.4%
EPAC1 antag,3.4%,-9.7%,6.2%,-0.4%,6.6%,u,39.8µM*,0.2%
Rango dissoc inh,u,u,0.5%,10.0%,-18.5%,x,17.5%,17.3%

17) O=C(Cc1ccc(Cl)cc1)Nc1cccc(C(=O)Nc2ccccc2C(=O)O)c1
18) CC(=O)c1ccc(N(C)C)c2c(N(C)C)cccc12
19) COc1cc2c(O)c3c(c(-c4ccc5c(c4)OCO5)c2cc1OC)C(=O)OC3
20) COc1cc2c(OC(C)=O)c3c(c(-c4ccc5c(c4)OCO5)c2cc1OC)C(=O)OC3
21) COc1ccccc1/C=C(/C(=O)OCC(=O)Nc1ccc(N(C)C)cc1)c1ccccc1
22) COc1ccccc1/C=C(/C(=O)OCC(=O)Nc1ccccc1C)c1ccccc1
23) O=C(COc1cccc(Oc2ccccc2)c1)Nc1ccc(SC(F)F)cc1
24) O=C(COc1cccc(OC(F)F)c1)Nc1ccc(SC(F)F)cc1
screen / no.,17,18,19,20,21,22,23,24
Rango-impB inh,0.4%,-0.5%,u,u,4.1%,-0.7%,-2.0%,1.2%
EPAC2 antagonist,-1.4%,11.9%,-2.6%,-6.5%,50.1µM*,-26.4%,-4.7%,25.1µM*
EPAC2 ag,2.7%,-1.0%,2.5%,9.0%,15.6%,5.9%,19.3%,-19.7%
EPAC1 ag,-11.0%,1.5%,16.8%,10.3%,3.2%,10.2%,15.3%,12.8%
EPAC1 antag,100µM*,10.3%,-13.9%,-6.8%,-24.7%,-23.2%,0.0%,-3.0%
Rango dissoc inh,-3.6%,1.1%,u,16.4µM*,-1.8%,-7.9%,-5.3%,0.0%

25) O=C1/C(=C/c2cccs2)Sc2ccccc21
26) O=C1CC(=O)N(Cc2ccco2)C(=S)N1
27) O=C1CC(=O)N(Cc2ccco2)C(=O)N1
28) COc1ccc(-c2csc3nc(C)nc(N4CCCCC4)c23)cc1OC
29) Cc1cc(C)n(CCC(=O)Nc2ccc(-c3ccno3)cc2)n1
30) O=C(NCCS(=O)(=O)N1CCN(c2cccc(Cl)c2)CC1)c1ccc2c(c1)OCO2
31) COc1ccc(C/C(C)=N/NC(=S)Nc2ccccc2)cc1
32) CCOc1ccc(NC(=O)/C(C#N)=C/c2ccc(N3CCCC3)c(C)c2)cc1
screen / no.,25,26,27,28,29,30,31,32
Rango-impB inh,u,u,u,-2.0%,u,2.2%,-1.4%,u
EPAC2 antagonist,-6.4%,13.9%,u,28.2µM*,5.8%,-8.9%,0.1%[57.1 µM],15.8%
EPAC2 ag,-4.4%,5.5%,1.9%,8.5%,11.9%,-3.7%,14.5%,0.7%
EPAC1 ag,11.7%,4.4%,19.8%,-1.0%,5.8%,35.5µM*,-8.3%,112µM*
EPAC1 antag,-1.0%,44.7µM*,u,-4.5%,-7.1%,-3.6%,-1.5%,89.8%
Rango dissoc inh,18.4µM*,u,u,16.1%,-29.3%,18.2%,u,u

33) CCCCCCCCNS(=O)(=O)CCNCc1ccccc1
34) CCCCCCCCNS(=O)(=O)CCNCCc1ccccc1
35) CCOc1ccc(NC(=NCc2ccc3c(c2)OCO3)SC2CC(=O)N(c3ccc(C(=O)O)cc3)C2=O)cc1 (stereo not given)
36) CCOc1ccc(NC(=NCc2ccc3c(c2)OCO3)SC2CC(=O)N(c3ccc(OCC)cc3)C2=O)cc1 (stereo not given)
37) CC12CCC(C(=O)Nc3ccccc3)(C(Br)C1=O)C2(C)C (stereo not given)
38) COc1cc(/C=C2\SC(=S)N(Nc3ccccc3)C2=O)ccc1O
39) COc1cc(/C=C2\SC(=S)N(NC(=O)c3ccc(O)cc3)C2=O)ccc1O
40) O=C(O)c1ccc(/C=C2\SC(=S)N(Nc3ccccc3)C2=O)cc1
41) CCOc1cc(/C=C2\SC(=S)N(Nc3ccccc3)C2=O)ccc1O
42) O=C(NN1C(=O)/C(=C/c2ccc(O)c(O)c2)SC1=S)c1ccccc1
43) O=C1/C(=C/c2ccc(O)c(O)c2)SC(=S)N1Nc1ccccc1
screen / no.,33,34,35,36,37,38,39,40,41,42,43
Rango-impB inh,-1.3%,73.1µM*,0.1%,3.3%,-0.4%,36.6µM*,u,3.7%,16.6%,36.6µM*,36.6µM*
EPAC2 antagonist,-19.8%,-19.7%,-14.6%,-8.8%,-0.4%,-13.6%,u,-12.8%,-20.5%,-19.9%,-17.6%
EPAC2 ag,-14.9%,-5.5%,1.4%,8.5%,-3.1%,11.6%,9.1%,4.0%,4.1%,3.2%,8.7%
EPAC1 ag,-43.6%,-12.6%,u,-3.7%,-2.1%,-16.1%,4.8%,-2.2%,15.9%,1.2%,-2.9%
EPAC1 antag,u,-16.8%,28.2µM*,-4.7%,6.9%,-20.4%,u,-23.1%,u,u,u
Rango dissoc inh,-10.1%,44.1%,-11.2%,10.8%,4.5%,17.1%,u,-3.5%,u,u,0.4%

Two records picked at random from those above:
41) CCOc1cc(/C=C2\SC(=S)N(Nc3ccccc3)C2=O)ccc1O
33) CCCCCCCCNS(=O)(=O)CCNCc1ccccc1
screen / no.,41,33
Rango-impB inh,16.6%,-1.3%
EPAC2 antagonist,-20.5%,-19.8%
EPAC2 ag,4.1%,-14.9%
EPAC1 ag,15.9%,-43.6%
EPAC1 antag,u,u
Rango dissoc inh,u,-10.1%
